The values that follow come from ChEMBL document CHEMBL4130504, “Discovery of new indomethacin-based analogs with potentially selective cyclooxygenase-2 inhibition and observed diminishing to PGE2 activities” (Eur J Med Chem, 2017).

The test system of the data set is Rattus norvegicus. Briefly: Ulcerogenicity in albino rat assessed as at 30 umol/kg, po administered daily for 3 successive days in two equal doses at 0 and 12 hrs measured at 6 hrs post last dose by magnifying lens based assay relative to control. It counts as toxicity, organism-based. The note with it: in vivo.

In the case of `COc1ccc2c(c1)c(CC(=O)O)c(C)n2C(=O)c1ccc(Cl)cc1` [INDOMETHACIN], the Activity stood at 100%.
